How the values were obtained:
[1] = Selectivity ratio of IC50 for JAK3 over IC50 for JAK2
[2] = Selectivity ratio of IC50 for JAK1 over IC50 for JAK2

Structure (SMILES) | Ratio IC50 [1] | Ratio IC50 [2]
Cc1cc(Nc2nc(N3CCN(C(=O)c4ccccc4S(C)(=O)=O)CC3)nn3cccc23)n[nH]1 | 94 | 3.9
Cc1cc(Nc2nc(N3CCN(C(=O)Cc4ccccc4C)CC3)nn3cccc23)n[nH]1 | 9.6 | 1.7
COc1cc(F)c(CC(=O)N2CCN(c3nc(Nc4cc(C)n[nH]4)c4cccn4n3)CC2)c(F)c1 | 69 | 3.4
Cc1cc(Nc2nc(N3CCN(C(=O)CCc4ccccc4)CC3)nn3cccc23)n[nH]1 | 11 | 1.7
O=C(NC1CC1)c1cc(Nc2nc(N3CCN(C(=O)Cc4ccccc4)CC3)nn3cccc23)n[nH]1 | 19 | 0.75
CC1(c2cc(Nc3nc(N4CCN(C(=O)Cc5ccccc5)CC4)nn4cccc34)n[nH]2)CC1 | 9 | 7.7
Cc1cc(Nc2nc(N3CCN(C(=O)Cc4ccccc4)CC3)nn3cccc23)n[nH]1 | 19 | 4.5
Cc1cc(Nc2nc(N3CCN(C(=O)c4ccccc4Cl)CC3)nn3cccc23)n[nH]1 | 22 | 3
Cc1ccc(CC(=O)N2CCN(c3nc(Nc4cc(C)[nH]n4)c4cccn4n3)CC2)cc1 | 20 | 2.8
COc1ccccc1C(=O)N1CCN(c2nc(Nc3cc(C)[nH]n3)c3cccn3n2)CC1 | 24 | 4.5
Cc1cc(Nc2nc(N3CCN(C(=O)c4ccccc4)CC3)nn3cccc23)n[nH]1 | 19 | 13
Cc1cc(Nc2nc(N3CCN(C(=O)Cc4ccc(Cl)cc4)CC3)nn3cccc23)n[nH]1 | 16 | –
Cc1cc(Nc2nc(N3CCN(C(=O)Cc4ccc(F)cc4F)CC3)nn3cccc23)n[nH]1 | 22 | 2.1
COc1ccc(CC(=O)N2CCN(c3nc(Nc4cc(C)[nH]n4)c4cccn4n3)CC2)cc1 | 30 | 7.9
Cc1cc(Nc2nc(N3CCN(C(=O)c4ccc(C#N)cc4)CC3)nn3cccc23)n[nH]1 | 1.3 | 0.7
Cc1cc(Nc2nc(N3CCN(C(=O)c4ccccc4C#N)CC3)nn3cccc23)n[nH]1 | 27 | 1.7
Cc1cc(Nc2nc(N3CCN(C(=O)c4ccccc4C)CC3)nn3cccc23)n[nH]1 | 33 | 12
Cc1ccc(C(=O)N2CCN(c3nc(Nc4cc(C)[nH]n4)c4cccn4n3)CC2)cc1 | 3.9 | 1.1
CC(C)n1cnc(Nc2nc(N3CCN(C(=O)Cc4ccccc4)CC3)nn3cccc23)c1 | 15 | 1.3
Cc1cc(Nc2nc(N3CCN(C(=O)c4ccccc4Br)CC3)nn3cccc23)n[nH]1 | 47 | 9.1
Cc1cc(Nc2nc(N3CCN(C(=O)Cc4ccccc4F)CC3)nn3cccc23)n[nH]1 | 17 | 3.8

Source: ChEMBL document CHEMBL1681645, “Pyrrolo[1,2-f]triazines as JAK2 inhibitors: achieving potency and selectivity for JAK2 over JAK3” (Bioorg Med Chem Lett, 2011)
